These results are taken from publication PMC11477000, “Enantioselective Binding of Proton Pump Inhibitors to Alpha1-Acid Glycoprotein and Human Serum Albumin—A Chromatographic, Spectroscopic, and In Silico Study” (International Journal of Molecular Sciences, 2024).

For this series, the system named is α1-acid glycoprotein (AGP). The series can be described thus: Bound percentage by HPLC on AGP column, extrapolation to zero organic modifier. It is filed as in vitro ADME, human. The conditions noted are these: average of IPA, EtOH, MeOH. Here is the method:
Chromatographic columns containing proteins can be used to determine the percentage of drug binding. A plot of the natural logarithm of the retention factors against the proportion of organic modifiers was created. […] The intercept of these linear equations can be used to calculate the bound percentage according to Equation (4) (see in Section 3.2).
Chromatographic measurements were carried out on two separate HPLC systems. […] Chromatographic parameters were calculated based on the following equations. The retention factor (k) was calculated as:(1) k=(tr−t0)/t0 where tr is the retention time of the investigated analyte, and t0 is the dead time, determined as the first peak appearance in the chromatogram. Resolution was calculated based on the following equation:(2) Rs=2(t2−t1)/(w1+w2) where t2 and t1 are the retention times of the second and first eluted enantiomers, respectively, while w is the peak width. The separation factor (α) was calculated as follows:(3) α=k2/k1 where k1 and k2 are the retention factors of the first- and second-eluting enantiomers, respectively. […]

The structures appear in SMILES notation.

Consider `COc1ccc2[nH]c([S@+]([O-])Cc3ncc(C)c(OC)c3C)nc2c1` [R-omeprazole], for which the “Bound percentage (b%), average” value is given as 96.65 ± 2.36%.
